This is a selection; strong and weak results do not stand in their true shares. The source made the active and inactive calls. Rule for the calls: active = hit-call score of the fitted dose curve at least 0.9, where 1 is the maximum; inactive = score below 0.9.
Experiments:
Conditions in all cases: actives raise or lower the signal; mRNA level, 48 h
[1] = read-out: Cytochrome P450 4A22 (Homo sapiens) (UniProt Q5TCH4); assay: LTEA_HepaRG_CYP4A22: Life Technologies and Expression Analysis (LTEA) Assay for Cytochrome P450 4A22 (CYP4A22) using HepaRG (AID 2283495)
Method in brief: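 Differentiated HepaRG cells in serum-free induction medium exposed 48 h in duplicate to eight half-log concentrations up to 100 uM in 0.5% DMSO. CYP4A22 mRNA quantified by TaqMan qRT-PCR, normalized to ACTB, GAPDH and POLR2A; bidirectional fit versus DMSO.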

Amino acid sequences for entries named in this document (tags omitted).
UniProt Q16665, whole entry: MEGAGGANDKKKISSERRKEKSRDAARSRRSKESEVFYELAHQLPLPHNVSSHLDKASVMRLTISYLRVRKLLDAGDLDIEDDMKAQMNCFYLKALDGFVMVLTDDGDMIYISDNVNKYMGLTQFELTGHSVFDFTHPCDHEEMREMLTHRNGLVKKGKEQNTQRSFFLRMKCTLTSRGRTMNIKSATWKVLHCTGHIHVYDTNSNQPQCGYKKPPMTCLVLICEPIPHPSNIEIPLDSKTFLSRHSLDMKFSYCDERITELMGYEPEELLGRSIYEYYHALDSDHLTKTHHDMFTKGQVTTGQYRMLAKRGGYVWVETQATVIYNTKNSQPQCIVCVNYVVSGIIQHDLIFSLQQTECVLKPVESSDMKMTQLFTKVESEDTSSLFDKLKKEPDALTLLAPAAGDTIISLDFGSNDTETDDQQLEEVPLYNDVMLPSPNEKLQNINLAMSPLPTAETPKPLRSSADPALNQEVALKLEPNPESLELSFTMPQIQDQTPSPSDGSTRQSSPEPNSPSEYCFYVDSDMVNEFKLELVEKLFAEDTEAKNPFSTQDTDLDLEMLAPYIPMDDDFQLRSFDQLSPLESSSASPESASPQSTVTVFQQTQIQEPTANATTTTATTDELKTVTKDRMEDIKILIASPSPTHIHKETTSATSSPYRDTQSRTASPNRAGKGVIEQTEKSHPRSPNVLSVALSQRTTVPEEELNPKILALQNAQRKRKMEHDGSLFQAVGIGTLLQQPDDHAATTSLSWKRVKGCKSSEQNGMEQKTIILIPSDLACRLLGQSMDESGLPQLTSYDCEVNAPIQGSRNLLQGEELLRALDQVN

[2] = read-out: Cytochrome P450 7A1 (Homo sapiens) (UniProt P22680); assay: LTEA_HepaRG_CYP7A1: Life Technologies and Expression Analysis (LTEA) Assay for Cytochrome P450 7A1 (CYP7A1) using HepaRG (AID 2283496)
Method in brief: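 Gene expression endpoint in human HepaRG liver cells treated for 48 h with test chemicals (up to 100 uM, 0.5% DMSO). Values come from bidirectional concentration-response fitting versus DMSO.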

[3] = read-out: Glutathione S-Transferase (GSTA2), GSTA2 (gene 2939); assay: LTEA_HepaRG_GSTA2: Life Technologies and Expression Analysis (LTEA) Assay for Glutathione S-Transferase (GSTA2) using HepaRG (AID 2283497)
Method in brief: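 HepaRG, 48 h dosing, 8-pt half-log CRC from 100 uM, 0.5% DMSO vehicle, n=2; RNA → Fluidigm TaqMan qRT-PCR; GSTA2 vs ACTB/GAPDH/POLR2A; gain/loss fit vs DMSO.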

[4] = read-out: Glutamate-cysteine ligase catalytic (GCLC), GCLC (gene 2729); assay: LTEA_HepaRG_GCLC: Life Technologies and Expression Analysis (LTEA) Assay for Glutamate-cysteine ligase catalytic (GCLC) using HepaRG (AID 2283498)
Method in brief: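 Read-out is GCLC transcript level by Fluidigm-based TaqMan qRT-PCR, normalized to three housekeeping genes and fitted in both directions relative to 0.5% DMSO. Human HepaRG cells received chemicals for 48 h, up to 100 uM.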

[5] = read-out: growth arrest and DNA damage 45 (GADD45G), GADD45G (gene 10912); assay: LTEA_HepaRG_GADD45G: Life Technologies and Expression Analysis (LTEA) Assay for growth arrest and DNA damage 45 (GADD45G) using HepaRG (AID 2283499)
Method in brief: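 Differentiated human HepaRG cells, 48 h post-plating, exposed 48 h in serum-free induction medium to 8 half-log concentrations (top 100 uM, 0.5% DMSO) in duplicate. GADD45G mRNA measured by Fluidigm TaqMan qRT-PCR, normalized to ACTB, GAPDH, POLR2A; bidirectional fit versus DMSO.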

[6] = read-out: Glutamate-cysteine ligase regulatory (GCLM), GCLM (gene 2730); assay: LTEA_HepaRG_GCLM: Life Technologies and Expression Analysis (LTEA) Assay for Glutamate-cysteine ligase regulatory (GCLM) using HepaRG (AID 2283500)
Method in brief: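 Human liver HepaRG cultures receive test chemicals for 48 hours at up to 100 uM in 0.5% DMSO. GCLM expression is measured by qRT-PCR and analysed for increases or decreases against vehicle.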

[7] = read-out: Glutathione S-transferase M3 (GSTM3), GSTM3 (gene 2947); assay: LTEA_HepaRG_GSTM3: Life Technologies and Expression Analysis (LTEA) Assay for Glutathione S-transferase M3 (GSTM3) using HepaRG (AID 2283501)
Method in brief: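 Differentiated human HepaRG cells were exposed in duplicate for 48 h in serum-free induction medium, 8 points from 100 uM top in half-log steps, 0.5% DMSO. GSTM3 mRNA was measured by TaqMan qRT-PCR, normalized to ACTB, GAPDH and POLR2A; bidirectional fit versus DMSO.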

[8] = read-out: Heat shock 70 kDa protein 1 (HSPA1A), gene 3303; assay: LTEA_HepaRG_HSPA1A: Life Technologies and Expression Analysis (LTEA) Assay for Heat shock 70 kDa protein 1 (HSPA1A) using HepaRG (AID 2283502)
Method in brief: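 HSPA1A induction in human HepaRG liver cells is measured after 48 h of chemical treatment (100 uM maximum, 0.5% DMSO vehicle). Expression comes from qRT-PCR normalized to endogenous controls.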

[9] = read-out: Hypoxia-inducible factor 1-alpha (Homo sapiens) (UniProt Q16665); assay: LTEA_HepaRG_HIF1A: Life Technologies and Expression Analysis (LTEA) Assay for Hypoxia-inducible factor 1 (HIF1A) Trancription factor using HepaRG (AID 2283503)
Method in brief: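 HepaRG, 48 h exposure, 8-pt half-log series from 100 uM, 0.5% DMSO vehicle, duplicates. Readout: HIF1A transcript by qRT-PCR (Fluidigm array), housekeeping-normalised. Bidirectional curve fit vs DMSO baseline.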

[10] = read-out: 3-Hydroxy-3-Methylglutaryl-CoA Synthase 2 (HMGCS2), HMGCS2 (gene 3158); assay: LTEA_HepaRG_HMGCS2: Life Technologies and Expression Analysis (LTEA) Assay for 3-Hydroxy-3-Methylglutaryl-CoA Synthase 2 (HMGCS2) using HepaRG (AID 2283504)
Method in brief: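 Human HepaRG cells in serum-free induction medium were exposed in duplicate for 48 h to 8-point half-log series from 100 uM top in 0.5% DMSO. HMGCS2 mRNA measured by TaqMan qRT-PCR, normalised to ACTB, GAPDH, POLR2A; bidirectional fit versus DMSO.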

HGF (gene 3082) = assay: LTEA_HepaRG_HGF: Life Technologies and Expression Analysis (LTEA) Assay for Hepatocyte Growth Facto (HGF) using HepaRG (AID 2283505)
Method in brief: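 Differentiated HepaRG cells in serum-free induction medium exposed 48 h in duplicate, 8 half-log concentrations from 100 uM in 0.5% DMSO. HGF mRNA by qRT-PCR, normalised to ACTB, GAPDH, POLR2A; bidirectional fitting.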

[11] = read-out: Insulin Like Growth Factor 1 (IGF1), IGF1 (gene 3479); assay: LTEA_HepaRG_IGF1: Life Technologies and Expression Analysis (LTEA) Assay for Insulin Like Growth Factor 1 (IGF1) using HepaRG (AID 2283506)
Method in brief: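 Using human HepaRG liver cells, IGF1 transcript induction or suppression is measured 48 h after dosing across eight concentrations capped at 100 uM. Values derive from bidirectional concentration-response fitting with DMSO as baseline.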

[12] = read-out: Intercellular Adhesion Molecule 1 (ICAM1), ICAM1 (gene 3383); assay: LTEA_HepaRG_ICAM1: Life Technologies and Expression Analysis (LTEA) Assay for Intercellular Adhesion Molecule 1 (ICAM1) using HepaRG (AID 2283507)
Method in brief: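 Differentiated human HepaRG cells in serum-free induction medium exposed 48 h in duplicate to 8 half-log concentrations (top 100 uM, 0.5% DMSO). ICAM1 mRNA quantified by TaqMan qRT-PCR, normalized to ACTB, GAPDH and POLR2A; bidirectional fitting versus DMSO.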

[13] = read-out: Insulin-like growth factor-binding protein 1 (IGFBP1), IGFBP1 (gene 3484); assay: LTEA_HepaRG_IGFBP1: Life Technologies and Expression Analysis (LTEA) Assay for Insulin-like growth factor-binding protein 1 (IGFBP1) using HepaRG (AID 2283508)
Method in brief: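 HepaRG cells, plated 48 h then switched to serum-free induction medium, exposed in duplicate for 48 h to 8-point half-log series from 100 uM in 0.5% DMSO. mRNA measured by qRT-PCR, normalized to ACTB/GAPDH/POLR2A; bidirectional fit versus DMSO.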

[14] = read-out: Interleukin 6 (IL6), IL6 (gene 3569); assay: LTEA_HepaRG_IL6: Life Technologies and Expression Analysis (LTEA) Assay for Interleukin 6 (IL6) using HepaRG (AID 2283509)
Method in brief: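 HepaRG, ~100,000 cells/well, 48 h pre-culture; serum-free induction medium; cmpd 8-pt half-log from 100 uM, 0.5% DMSO, duplicate, 48 h. Lysis in RLT, TaqMan qRT-PCR; gain or loss vs DMSO.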

[15] = read-out: Interleukin 6 Receptor (IL6R), IL6R (gene 3570); assay: LTEA_HepaRG_IL6R: Life Technologies and Expression Analysis (LTEA) Assay for Interleukin 6 Receptor (IL6R) using HepaRG (AID 2283510)
Method in brief: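 Concentration-response in human liver HepaRG cells: eight concentrations from 100 uM downward by half-logs, 48 h exposure, 0.5% DMSO vehicle. IL6R mRNA change measured by qRT-PCR and fitted in both directions relative to vehicle.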

[16] = read-out: Potassium channel subfamily K member 1 (KCNK1), KCNK1 (gene 3775); assay: LTEA_HepaRG_KCNK1: Life Technologies and Expression Analysis (LTEA) Assay for Potassium channel subfamily K member 1 (KCNK1) using HepaRG (AID 2283511)
Method in brief: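 Gain or loss of KCNK1 mRNA is the read-out, quantified by qRT-PCR against three housekeeping genes after 48 h chemical treatment of human HepaRG liver cells. Concentrations ran from 100 uM downward in half-log steps, vehicle 0.5% DMSO.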

[17] = read-out: Keratin 19 (KRT19), KRT19 (gene 3880); assay: LTEA_HepaRG_KRT19: Life Technologies and Expression Analysis (LTEA) Assay for Keratin 19 (KRT19) using HepaRG (AID 2283512)
Protocol: LTEA_HepaRG is a cell based, multiplexed-readout assay that uses HepaRG, a human liver cell line, with measurements taken at 48 hours after chemical dosing on a 96-well plate.LTEA_HepaRG_KRT19 is one of 102 assay component(s) measured in the LTEA HepaRG cell culture assay. It is a marker of Cell proliferation, survival, death.Data from the assay component LTEA_HepaRG_KRT19 was analyzed into 1 endpoint. This assay endpoint, LTEA_HepaRG_KRT19, was analyzed with bidirectional fitting relative to DMSO as the negative control and baseline of activity. Using a type of inducible reporter, measures of mRNA induction for gain or loss-of-signal activity can be used to understand regulation of transcription factor activity. To generalize the intended target to other relatable targets, this assay endpoint is annotated to the filaments intended target family, where the subfamily is keratin.
Cell culture and cytotoxicity assays were conducted at Thermo Fisher Scientific's Custom Services facility (Madison, WI). A single lot of human HepaRG cells (Thermo Fisher Scientific, Frederick, MD) was used for the cell culture experiments. 96-well format collagen type I coated plates of human HepaRG cells were prepared using established methods. Briefly, cryopreserved HepaRG cells were thawed, plated at a density of approximately 100,000 cells/well in HepaRG Thaw, Plate, and General Purpose media (HPRG770, Thermo Fisher Scientific), and incubated for 48 hours. 0.5% DMSO was selected as vehicle control to balance the requisite need of DMSO in HepaRG cultures to maintain differentiation (for example, baseline metabolism, proportions of hepatocytes vs. cholangiocytes), while enabling further hepatic receptor pathway activation (for example, PXR and CAR) in response to chemical exposure. 48 hours after plating, the culture medium was replaced with HepaRG Serum-Free Incudtion Media. Cells were exposed to each test chemical in duplicate and maintained in CO2 incubators for another 48 hours. Chemical plates were thawed to room temperature and 200x concentrations of treatment groups were prepared. 8-point conentration-reponse curves were made with the highest exposure at 100 uM, followed by half-log dilutions, all in 0.5% DMSO. Each test plate contained variouse controls, induction positive controls (1mM phenobarbital), cytotoxicity positive controls ([…] aflatoxin B1), vehicle controls (0.5% DMSO), and total lysis controls (0.5% DMSO). Cell morphology images were taken using an Essen IncuCyte FLR automated microscope, with six 96-well plates imaged in about 24 minutes. Images were captured and exported and JPEG files. Spent culture media was transfered to black-well plates for the LDH assay, and remaining media was sorted at -80 C for later use. Cells were treated with RLT buffer and frozen until shipped for gene expression analysis. Total RNA was isolated from the cell suspension in 75 uL of Buffer RLT (Qiagen, Germantown, MD 20874) by Quintiles/Expression Analysis (Durham, NC) using a custom isolation procedure. Total RNA from each plate well was transferred to a preamplification plate. Fluidigm's 96.96 Dynamic ArrayTM (Fluidigm, Amsterdam, the Netherlands) technology was used for gene expression analyses by quantitative reverse transcription polymerase chain reaction (qRT-PCR, performed by Quintiles/Expression Analysis, Durham, NC)89. […]

[18] = read-out: JUN Transcription Factor, JUN (gene 3725); assay: LTEA_HepaRG_JUN: Life Technologies and Expression Analysis (LTEA) Assay for JUN Transcription Factor using HepaRG (AID 2283513)
Method in brief: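 Human HepaRG liver cells receive test chemicals in 0.5% DMSO for 48 h across an eight-point range topping at 100 uM. Expression changes in JUN are scored in both directions against the DMSO vehicle.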

[19] = read-out: Lipase C (LIPC), LIPC (gene 3990); assay: LTEA_HepaRG_LIPC: Life Technologies and Expression Analysis (LTEA) Assay for Lipase C (LIPC) using HepaRG (AID 2283514)
Method in brief: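 Read-out is LIPC transcript level by TaqMan qRT-PCR, normalized to three housekeeping genes, after 48 h chemical treatment of human HepaRG liver cells. Curves span eight concentrations topping at 100 uM; activity in either direction scored relative to 0.5% DMSO.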

Measured: outcome

Cc1ccc([N+](=O)[O-])cc1[N+](=O)[O-]
inactive: [1] | [2] | [3] | [4] | [5] | [6] | [7] | [8] | [9] | [10] | HGF (gene 3082) | [11] | [12] | [13] | [14] | [15] | [16] | [17] | [18] | [19]

Cc1c([N+](=O)[O-])cccc1[N+](=O)[O-]
inactive: [1] | [2] | [3] | [4] | [5] | [6] | [7] | [8] | [9] | [10] | HGF (gene 3082) | [11] | [12] | [13] | [14] | [15] | [16] | [17] | [18] | [19]

Cc1cccc([N+](=O)[O-])c1[N+](=O)[O-]
inactive: [1] | [2] | [3] | [4] | [5] | [6] | [7] | [8] | [9] | [10] | HGF (gene 3082) | [11] | [12] | [13] | [14] | [15] | [16] | [17] | [18] | [19]

CC(C)OP(C)(=O)OC(C)C
inactive: [1] | [2] | [3] | [4] | [5] | [6] | [7] | [8] | [9] | [10] | HGF (gene 3082) | [11] | [12] | [13] | [14] | [15] | [16] | [17] | [18] | [19]

O=[N+]([O-])c1cccc([N+](=O)[O-])c1
inactive: [1] | [2] | [3] | [4] | [5] | [6] | [7] | [8] | [9] | [10] | HGF (gene 3082) | [11] | [12] | [13] | [14] | [15] | [16] | [17] | [18] | [19]

— PubChem BioAssay (EPA / NIEHS)
